Source: ChEMBL document CHEMBL1148282, “A novel series of piperidin-4-yl-1,3-dihydroindol-2-ones as agonist and antagonist ligands at the nociceptin receptor” (2004)

Assay: [Agonist concentration]/(dose ratio - 1) was determined

SMILES | Ke [nM]
CC1(C)C2CCC(CN3CCC(N4C(=O)Cc5ccccc54)CC3)C1C2 (configuration not stated) | 67.1
O=C1Cc2ccccc2N1C1CCN(CC2CCCCCCC2)CC1 | 15.3
